The values below come from patent publication US8541462B2, “Tetrahydrocarbazole derivatives as ligands of G-protein coupled receptors” (AEterna Zentaris GmbH, priority 2007, dated 2013).

By UniProt entry, the sequences of proteins in these tests, tags left out.
UniProt Q01776, whole entry: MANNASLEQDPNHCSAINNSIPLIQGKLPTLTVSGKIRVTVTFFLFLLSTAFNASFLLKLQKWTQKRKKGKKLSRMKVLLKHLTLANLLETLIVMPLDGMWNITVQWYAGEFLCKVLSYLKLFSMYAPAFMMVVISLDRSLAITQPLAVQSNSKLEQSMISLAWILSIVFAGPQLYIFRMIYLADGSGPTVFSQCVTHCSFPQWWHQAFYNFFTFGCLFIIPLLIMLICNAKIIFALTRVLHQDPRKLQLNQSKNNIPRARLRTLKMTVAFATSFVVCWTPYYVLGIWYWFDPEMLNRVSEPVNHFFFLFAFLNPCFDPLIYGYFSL

In series [1] the target is LHRH receptor (endogenous GnRH receptor of alpha T3-1 cell line) (Mus musculus, UniProt Q01776). Briefly: LHRH-receptor binding assay (displacement of [125I] cetrorelix on alpha T3-1 cells). Conditions: WO 2006/005484-substance 75 = 100%. Here is the method: For LHRH receptor binding studies, an assay system using alpha T3-1 cell line with endogenous GnRH receptor expression was employed (Windle et al., Mol. Endocrinol. 1990, 4(4): 597-603).
Iodinated cetrorelix was used as a tracer with about 80% of peptide capable of specific receptor association.
For displacement binding assays, the cells were incubated with approximately 200 pM [^125l] cetrorelix and different concentrations of unlabeled test compounds as competitor. The cell suspension in binding medium was layered on top of silicon/paraffin oil, incubated for 60 min at 37° C. and separated by centrifugation. The tips of the tubes containing the cell pellet were cut off, subsequently cell pellet and supernatant were analyzed by gamma-radiation analysis.
The amount of unspecific binding was determined by including unlabeled cetrorelix at 1 μM final concentration and was typically ≦10% of total binding. IC50 values were calculated by using the GraphPad Prism analysis program (GraphPad Software Inc.).
For orientation: Displacement assays read how much labelled ligand stays bound in the presence of the test substance.

The nature of series [2]: Metabolic stability testing in liver microsomes. Conditions: mixed-gender human liver microsomes, 1 mg microsomal protein/mL, initial concentration 10 μM, 60 minutes at 37° C.; WO 2006/005484-substance 7 = 100%. As for the experimental part: Subcellular fractions of different tissues can be prepared easily by ultracentrifugation. Most commonly these are prepared from the liver of animals and human donors to gain information about the potential hepatic clearance of compounds (first-pass elimination of drugs). Human or animal (e.g. dog, mouse, rat) subcellular fraction like liver microsomes, or possibly the fraction called S9 have therefore become a very commonly and widely used as an in vitro model to investigate mainly cytochrome P450 dependent phase I (but also phase II) metabolism that takes place in the liver.
In order to reflect the standard proportion of the enzymes in human and animal livers, liver microsomes are usually pooled from a number of […] of the same sex (or mixed-gender). By supplementing the liver microsomes with relevant cofactors and other components it is possible to investigate and distinguish between CYPs, flavin-containing monooxygenase (FMO) and UDP-glucuronosyltransferase (UGT) activities.
Selected compounds of the invention were tested for their stability in mixed-gender human liver microsomes and compared to pertinent prior art compounds.
Under the test conditions applied (1 mg microsomal protein/mL, initial concentration of 10 μM, and incubation for 60 minutes at 37° C.) the following normalized results were obtained.
(In general: Liver microsomes are vesicles of endoplasmic reticulum, rich in cytochrome P450 enzymes.)

Series [3] in a line: Pharmacokinetic study (oral, cannulated rats, LC/MS of plasma). Conditions: male Wistar rats, 5 mg/kg, mixture of both compounds in Solutol HS 15/PEG300 (3:1). Here is the method:
Adult male Wistar rats weighing 278-290 g (Jinvier, France) were used in the study. Animals were housed in a temperature-controlled room (20-24° C.) and maintained in a 12 h light/12 h dark cycle. Food and water were available ad libitum.
For surgery, rats were anaesthetised with a ketamine (90 mg/kg)/xylazine (10 mg/kg) mixture, and cannulated with silicone tubing via the right jugular vein. Prior to the first blood sampling, animals were connected to a counterbalanced system and tubing to perform blood sampling in the freely moving rat.
Separate stock solutions (5 mg/ml) of compound 52 of the invention and prior art substance WO 2006/005484—substance 76 were prepared in Solutol HS 15/PEG300 (3:1). The whole process was performed under constant stirring. Half of the volume of the vehicle was added first. After sonication (5 minutes), the second half of the vehicle was added and the vials were again sonicated. All the solutions were clear and free of particles or agglomerates.
Immediately before application, the dosing mixture was prepared by adding equal volumes of the stock solutions to end up with a final concentration of 1 mg/ml for each compound. The mixture was applied orally to rats with an application volume of 5 ml/kg.
Blood samples (200 μl) were taken 1 hour before application and 1, 2, 4, 6, 8, 12 and 24 hours after. They were centrifuged at 650 g for 10 minutes at 4° C. and then the plasma was harvested and kept at −20° C. until LC/MS analysis.

For `CCC(C)[C@H](NC(=O)Cc1ccccc1F)C(=O)N[C@]1(C(=O)N[C@H](C(N)=S)C(C)CC)CCc2[nH]c3c(C(F)(F)F)cccc3c2C1` (some centres unmarked), the “Normalized Affinity” value in series [1] was determined as 97%. In series [2], this molecule yielded a Normalized microsomal stability of 61%. In series [3], the AUC0-tz came to 96.2 ng·h/mL, the Cmax obs turned out to be 12.5 ng/mL and the tmax obs amounted to 4.0 h.
In the case of `CCC(C)[C@H](NC(=O)Cc1ccc(F)cc1F)C(=O)N[C@]1(C(=O)N[C@H](C(N)=S)C(C)CC)CCc2[nH]c3c(Cl)cc(F)cc3c2C1` (some centres unmarked), in series [1], the “Normalized Affinity” value worked out at 95%.
The same measure, in the same setting: the value for `CCC(C)[C@H](NC(=O)[C@@]1(NC(=O)[C@@H](NC(=O)Cc2ccccc2F)C(C)CC)CCc2[nH]c3c(C(F)(F)F)cccc3c2C1)C(N)=O` (some centres unmarked) was 100%; that for `CCC(C)[C@H](NCCc1ccc(F)cc1)C(=O)N[C@]1(C(=O)N[C@H](C(N)=S)C(C)CC)CCc2[nH]c3c(Cl)cc(F)cc3c2C1` (some centres unmarked) was 25%.
